The entries are a selection whose mix differs from that of the whole data set. Records with an inconclusive call do not appear. Activity calls are given as the source filed them. Calls follow the shape of the dose curve; as a rule, active = well fitted inhibition curve with a large enough effect; inconclusive = small, poorly fitted or top-dose-only effect; inactive = no such curve, though single readings can be large or run the other way.
% is scaled to controls: 0 for no effect and ±100 for the full control effect.

Amino acid sequences for entries named in this document (tags omitted).
UniProt P43220, whole entry: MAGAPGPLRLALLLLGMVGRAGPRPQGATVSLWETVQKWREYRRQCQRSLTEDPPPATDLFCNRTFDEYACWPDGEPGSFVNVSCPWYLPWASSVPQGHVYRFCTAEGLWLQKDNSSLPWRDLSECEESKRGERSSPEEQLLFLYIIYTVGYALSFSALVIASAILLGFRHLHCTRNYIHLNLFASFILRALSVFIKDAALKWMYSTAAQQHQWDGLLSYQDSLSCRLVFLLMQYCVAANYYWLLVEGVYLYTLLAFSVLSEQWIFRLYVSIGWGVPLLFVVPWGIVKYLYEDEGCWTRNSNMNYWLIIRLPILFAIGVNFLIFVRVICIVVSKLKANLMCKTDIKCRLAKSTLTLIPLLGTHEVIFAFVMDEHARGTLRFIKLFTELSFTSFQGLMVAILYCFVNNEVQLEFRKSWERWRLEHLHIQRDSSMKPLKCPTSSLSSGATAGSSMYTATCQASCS

For the assay, the target named is Glucagon-like peptide 1 receptor (Homo sapiens) (UniProt P43220). Briefly: qHTS of GLP-1 Receptor Inverse Agonists (Inhibition Mode). Also: nearly all actives have a fitted effect of over 55% in size. Particulars: HEK293 GLP-1R CRE-luciferase, luminescence, 24 h, GLP-1R form is constitutively active; at 38.3 µM (top of the series).
`CCC(=O)N(c1ccccc1)C1(COC)CCN(CCn2nnn(CC)c2=O)CC1`: the activity change, negative = inhibition was inactive: -3.68%.
The value for `CCC(=O)N(c1ccccc1)C1(COC)CCN(CCc2cccs2)CC1` was inactive: -28.5%.
